Data as given in ChEMBL document CHEMBL1122336, “Aromatic amidines: comparison of their ability to block respiratory syncytial virus induced cell fusion and to inhibit plasmin, urokinase, thrombin, and trypsin” (J Med Chem, 1983).

Target: Urokinase-type plasminogen activator (Homo sapiens, UniProt P00749)
Test: Inhibition constant against Urokinase

N=C(N)c1ccc2nc(Cc3nc4ccc(C(=N)N)cc4[nH]3)[nH]c2c1
Ki: 2330 nM
